Values of other authors in PubChem BioAssay AID1811 (Shanghai Institute of Organic Chemistry, 2009).
Some of the results follow. Activity calls are given as the source filed them. Unless stated, no cut-off for active and inactive is given here.

System: coagulation factor xa
Assay: PubChem AID 1811
Conditions: PDB complex binding affinities from literature

In the case of `CC(C)N1CCC(NC(=O)c2cc3ccccc3n2Cc2cc(-c3ccc(Cl)s3)on2)CC1`, the outcome is listed as “active”.
